# Measured affinities in a library of Ab-91 heavy chain variants

Reference: Engelhart et al. 2022, doi:10.1038/s41597-022-01779-4. File: FLAb, binding data.

Target: peptide PDVDLGDISGINAS, taken from heptad repeat 2 (HR2) of SARS-CoV-2 spike.

Each scFv is VL, three GGGGS repeats, VH, as in the parent Ab-91, and differs from it in the CDRs of the heavy chain only.
VL: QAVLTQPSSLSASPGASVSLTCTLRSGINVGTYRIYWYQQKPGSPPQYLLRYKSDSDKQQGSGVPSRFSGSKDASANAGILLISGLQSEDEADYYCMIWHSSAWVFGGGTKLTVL
VH: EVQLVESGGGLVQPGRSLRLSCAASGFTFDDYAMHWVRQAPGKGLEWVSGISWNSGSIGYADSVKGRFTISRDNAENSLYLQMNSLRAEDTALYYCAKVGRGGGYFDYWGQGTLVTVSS

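The parent was found by panning a naive human phage display library on the peptide. Variants in AAYL51 differ from the parent at up to three CDR positions; double and triple changes were sampled at random. The scFvs were displayed on barcoded MATa yeast, the peptide on MATalpha yeast. After mating in shaken culture at 30 °C for 16 h, diploids were selected and their barcode pairs sequenced. The ratio of observed to expected reads was calibrated, replicate by replicate, on BCL2-family standards whose Kd was known from biolayer interferometry. There are three technical replicates.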

Substitutions are numbered in sequence along the VH above, starting at 1 (not Kabat). All variants listed here change G102 of the VH, counted from its first residue. Numbers give log10(Kd / nM), so 0 is 1 nM and 3 is 1 µM. Smaller is tighter. Replicates are averaged; those with no signal do not enter the mean. "nd" means that the variant was in the library but no mating with the target was seen in any replicate; the authors take this as a sign of poor binding, and no number exists.

* F27R+G102C+D107E -> nd (0 of 3 replicates; controls 0 of 9)
* T28Y+I58K+G102M -> 1.80 (3 of 3 replicates; controls 7 of 9)
* G102M+D107S -> 1.56 (3 of 3 replicates; controls 2 of 9)
* D30C+G100T+G102P -> 4.81 (2 of 3 replicates; controls 7 of 9)
* S52K+G102F -> 5.18 (1 of 3 replicates; controls 1 of 9)
* I51R+G59K+G102T -> nd (0 of 3 replicates; controls 1 of 9)
* S57M+G102M -> nd (0 of 3 replicates; controls 2 of 9)
* A33P+K65Q+G102Y -> 2.75 (3 of 3 replicates; controls 3 of 9)
* T28H+S52W+G102C -> nd (0 of 3 replicates; controls 1 of 9)
* G102N+G103M+Y108L -> 3.56 (1 of 3 replicates; controls 0 of 9)
* W53M+Y60Q+G102Y -> 4.48 (1 of 3 replicates; controls 1 of 9)
* D31L+Y32L+G102Y -> nd (0 of 3 replicates; controls 2 of 9)
* F29S+I51T+G102I -> 4.23 (1 of 3 replicates; controls 4 of 9)
* D31C+G102K+F106S -> 1.62 (3 of 3 replicates; controls 1 of 9)
* S52Y+Y60N+G102I -> nd (0 of 3 replicates; controls 0 of 9)
* A33G+H35G+G102M -> 3.35 (1 of 3 replicates; controls 2 of 9)
* M34C+S52H+G102C -> nd (0 of 3 replicates; controls 0 of 9)
* G102A+G103M+Y108S -> 5.39 (1 of 3 replicates; controls 1 of 9)
* T28R+Y32G+G102Y -> 5.15 (3 of 3 replicates; controls 6 of 9)
* S57A+S63H+G102L -> 3.87 (1 of 3 replicates; controls 1 of 9)
* H35T+S52H+G102A -> 5.56 (1 of 3 replicates; controls 2 of 9)
* G56R+V64T+G102C -> 4.08 (3 of 3 replicates; controls 2 of 9)
* F29M+A61E+G102W -> 1.35 (3 of 3 replicates; controls 0 of 9)
* F27W+G59H+G102K -> 5.62 (3 of 3 replicates; controls 8 of 9)
* F27S+G59T+G102A -> nd (0 of 3 replicates; controls 2 of 9)
* D31I+G100Q+G102F -> nd (0 of 3 replicates; controls 0 of 9)
* D31V+M34A+G102W -> nd (0 of 3 replicates; controls 1 of 9)
* I51E+W53N+G102M -> nd (0 of 3 replicates; controls 2 of 9)
* R101Y+G102T+G104Q -> nd (0 of 3 replicates; controls 3 of 9)
* D62V+K65W+G102V -> nd (0 of 3 replicates; controls 1 of 9)
* F27L+D30Y+G102L -> 4.68 (2 of 3 replicates; controls 2 of 9)
* I58C+D62P+G102R -> nd (0 of 3 replicates; controls 0 of 9)

Picked from the list: the 3 lowest averages where every replicate gave a value.

{"changes": "F29M+A61E+G102W", "log10 Kd (nM), mean": "1.35", "detected": "3 of 3", "signal with controls": "0 of 9"}
{"changes": "G102M+D107S", "log10 Kd (nM), mean": "1.56", "detected": "3 of 3", "signal with controls": "2 of 9"}
{"changes": "D31C+G102K+F106S", "log10 Kd (nM), mean": "1.62", "detected": "3 of 3", "signal with controls": "1 of 9"}

For reference, the parent read 1.86 as the reference entry and 0.88 as a member of this library. Background: pairings of library AAYL51 with three empty control strains gave a value in 21% of cases (median 4.54, 5th percentile 3.26). Values in that range, when seen in few replicates, are hard to tell from nonspecific mating. The control count says in how many pairings with the empty strains this scFv gave a signal.